Two molecules from patent publication EP0619818B1, “IMIDAZOYLALKYL SUBSTITUTED WITH A SIX MEMBERED NITROGEN CONTAINING HETEROCYCLIC RING” (SCHERING CORPORATION, priority 1991, dated 1993) can be followed below.

Protein sequences, listed by entry. Tags and fused reporters are not part of them. Lines headed by an entry give the natural chain unless they say otherwise; changes in a name come on top.
UniProt Q9JI35: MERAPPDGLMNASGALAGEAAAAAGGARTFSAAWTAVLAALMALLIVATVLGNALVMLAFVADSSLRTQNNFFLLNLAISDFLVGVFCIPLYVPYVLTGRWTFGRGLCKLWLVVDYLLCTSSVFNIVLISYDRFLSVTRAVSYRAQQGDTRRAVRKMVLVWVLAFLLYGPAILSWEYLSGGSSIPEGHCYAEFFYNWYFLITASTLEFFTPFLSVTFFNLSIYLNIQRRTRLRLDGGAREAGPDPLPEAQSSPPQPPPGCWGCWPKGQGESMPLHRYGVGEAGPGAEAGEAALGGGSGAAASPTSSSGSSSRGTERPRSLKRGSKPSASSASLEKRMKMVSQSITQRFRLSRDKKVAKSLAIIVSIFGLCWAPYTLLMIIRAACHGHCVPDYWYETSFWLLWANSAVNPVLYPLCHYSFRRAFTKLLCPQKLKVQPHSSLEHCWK

This assay addresses H3 receptors (Cavia porcellus, UniProt Q9JI35). Put plainly: H3 Receptor Binding Assay. Further details: species or system guinea pig.

pKi: −log10 of the molar value.

What is called pKi is the negative decadic logarithm of the Ki, by convention in mol/L. High values mean a small Ki, low ones a large Ki.

The molecule `CN1CCC(Cc2c[nH]cn2)CC1` [Compound 7.2] gave a pKi of 9.10.
Next, `CN1CCC(=Cc2c[nH]cn2)CC1` [Compound 9.1]: 7.92.
